# Experimental data: paper PMC5907308, “21st Brazilian Diabetes Society Congress” (Diabetology & Metabolic Syndrome, 2018)
# Experiments:
# participants with T1DM = assay: Multiple-dosing crossover euglycemic glucose clamp study, steady-state PK/PD; type: in vivo, human; conditions: for relative degree of INS fluctuation (Frel), lower vs. Deg-100: serum insulin; for Distribution of INS-AUC0-24, 6-h fraction 0–6 h / Distribution of INS-AUC0-24, 6-h fraction 6–12 h / Distribution of INS-AUC0-24, 6-h fraction 12–18 h / Distribution of INS-AUC0-24, 6-h fraction 18–24 h: data the same at 0.4 and 0.6 U/kg/day
# [1] = tested on: T2DM pts uncontrolled on BOT with other BI; assay: TOP-2 prospective observational study, 6 month interim analysis; type: in vivo, human
# [2] = tested on: adults with T2D using basal insulin; assay: DELIVER2 real-world study, switch of basal insulin; type: in vivo, human
# patients with T2D = assay: Network meta-analysis Gla-300 vs IDeg (inputs of the cost-effectiveness model); type: in vivo, human; conditions: estimated by network meta-analysis
# [3] = tested on: T2D pts aged ≥ 65 years on basal insulin; assay: DELIVER 3 retrospective real-world study; type: in vivo, human; conditions: 6-mo follow-up
# [4] = tested on: people with T2DM aged ≥ 65 year; assay: Patient-level meta-analysis of EDITION 1, 2 and 3, participants aged ≥ 65 year, 1 year; type: in vivo, human; conditions: for mean (SD) increase in body weight from baseline to 1 year: human, in vivo; for total number of confirmed (≤ 70 mg/dL) or severe hypoglycemic events, any time [24 h] / total number of confirmed (≤ 70 mg/dL) or severe hypoglycemic events, nocturnal [00:00–05:59 h]: over 12 months
# people with T2DM = conditions: vs Gla-100, regardless of HbA1c at month 6
# T2DM patients = conditions: for documented hypoglycemia event rate: Poisson regression; for documented (≤ 70 mg/dL) symptomatic hypoglycemia, patients: pooled, 12 months
# T1D patients < 18 years = assay: Real-world clinical follow-up of T1D patients < 18 years switched to insulin degludec; type: in vivo, human
# [5] = background statement; no reference given; cited from earlier work
# [6] = tested on: elderly patients with T2DM; assay: Pilot randomized trial Ideg vs Iglar-U100 with CGM; type: in vivo, human
# [7] = tested on: patients with DM 1 and DRIASM; assay: Case reports: IDeg in resistance to subcutaneous and intramuscular insulin (DRIASM); type: in vivo, human; conditions: patient 2
# [8] = background statement; no reference given; cited from earlier work; remark: listed apart in the source
# [9] = tested on: inpatient population with diabetes; assay: Degludeca vs NPH, both with Regular Insulin, in hospital (8 patients per group); type: in vivo, human
# [10] = tested on: subjects with T2D inadequately controlled on IGlarU100 and metformin; assay: DUAL V 26-week open-label treat-to-target trial; type: in vivo, human
# [11] = tested on: people with T2D and CKD stages 3-4; assay: AWARD-7 phase 3 study, 26 weeks, both arms combined with insulin lispro; type: in vivo, human
# [12] = arms DU 1.5 mg and insulin glargine
substance,measurement,setting,value
insulin glargine [Gla-300],"relative degree of INS fluctuation (Frel), lower vs. Deg-100",participants with T1DM; 0.4 U/kg/day,13%
same,"relative degree of INS fluctuation (Frel), lower vs. Deg-100",participants with T1DM; 0.6 U/kg/day,17%
same,"Distribution of INS-AUC0-24, 6-h fraction 0–6 h",participants with T1DM,25%
same,"Distribution of INS-AUC0-24, 6-h fraction 6–12 h",participants with T1DM,26%
same,"Distribution of INS-AUC0-24, 6-h fraction 12–18 h",participants with T1DM,26%
same,"Distribution of INS-AUC0-24, 6-h fraction 18–24 h",participants with T1DM,23%
same,pts experienced nocturnal hypoglycemia,"[1]; after switching, vs 1.2% before",0.5%
same,BW,[1]; six months after switching,remained stable
same,"fewer hypo events vs O-BI, LSM difference","[2]; 6 m, adjusted for baseline hypo, P < 0.01",0.23 E/PPPY
same,pts experienced hypo,"[2]; 6 m, P = 0.01",15.9%
same,"all-cause ER service, adjusted odds ratio vs O-BI","[2]; 6 m, [0.66–0.91], P < 0.01",0.77
same,"fewer all-cause ER events vs O-BI, LSM difference",[2]; P = 0.01,0.18 E/PPPY
same,non-severe HEs (NSHEs),patients with T2D,446 per 100 patient years
same,severe hypoglycemia events (HEs),patients with T2D,2.5 per 100 patient years
same,less likely to have hypoglycemia vs. other basal insulins,[3],57%
same,"hypoglycemia, OR vs. other basal insulins","[3]; 95% CI 0.307–0.607, P < 0.0001",0.432
same,"≥ 1 confirmed (≤ 70 mg/dL) or severe nocturnal hypoglycemic event, RR Gla-300 relative to Gla-100","[4]; Nocturnal (00:00–05:59 h), safety population",0.79
same,mean (SD) increase in body weight from baseline to 1 year,[4],1.1 [4.0] kg
same,"total number of confirmed (≤ 70 mg/dL) or severe hypoglycemic events, any time [24 h]",[4],4664
same,"total number of confirmed (≤ 70 mg/dL) or severe hypoglycemic events, nocturnal [00:00–05:59 h]",[4],604
same,rate of confirmed (≤ 70 mg/dL) or severe hypoglycemia,people with T2DM,consistently lower rate
same,"documented symptomatic hypoglycemia, odds ratio Gla-300 vs. Gla-100","T2DM patients; 95% CI 0.65–0.90, P = 0.001",0.77
same,documented hypoglycemia rate ratio Gla-300 vs. Gla-100,"T2DM patients; 95% CI 0.76–0.92, P < 0.001",0.84
same,documented hypoglycemia event rate,T2DM patients,4.4 events/year
same,"documented (≤ 70 mg/dL) symptomatic hypoglycemia, patients",T2DM patients,57.0%
insulin degludec [IDeg],"Distribution of INS-AUC0-24, 6-h fraction 0–6 h",participants with T1DM,23%
same,"Distribution of INS-AUC0-24, 6-h fraction 6–12 h",participants with T1DM,29%
same,"Distribution of INS-AUC0-24, 6-h fraction 12–18 h",participants with T1DM,26%
same,"Distribution of INS-AUC0-24, 6-h fraction 18–24 h",participants with T1DM,21%
same,adverse events,"T1D patients < 18 years; human, in vivo",No others adverse events were reported
same,Body weight at baseline,T1D patients < 18 years; n = 9,47.77 kg
same,Body weight after switch,"T1D patients < 18 years; n = 9, follow up 6 months",49.63 (± 13.28) kg
same,Nocturnal hypoglycaemia,T1D patients < 18 years; patients and parents reports,reduced
same,mean half-life,[5],over 25 h
same,Nº of hypos (nocturnal),[6]; CGMS,2 (1-2)
same,Nº of hypos (total),[6]; CGMS,3 (1-6)
same,Nº of hypos (nocturnal),[6]; SMBG,0 (0-2)
same,Nº of hypos (total),[6]; SMBG,0 (0-4)
same,episodes of hipoglycemia after SC IDeg-70 UI,[7],2 episodes
same,"Insulinemia (2,6-24,9 μUI/mL)",[7]; 04 hour after SC IDeg 70UI,75.7 μUI/mL
same,half-life,[8],~ 25 h
same,episodes of hypoglycemia during hospitalization,[9],4 episodes
same,nocturnal hypoglycemia episodes,[9],1 episodes
same,severe hypoglycemia (< 40 mg/dl) episodes,[9],1 episodes
same,non-severe HEs (NSHEs),patients with T2D,555 per 100 patient years
same,severe hypoglycemia events (HEs),patients with T2D,4.0 per 100 patient years
insulin glargine [Gla-100],confirmed hypoglycaemic episodes,[10]; 26 weeks,505.4 episodes/100 PYE
same,nocturnal confirmed hypoglycaemia (00:01 to 05:59),[10]; 26 weeks,122.8 episodes/100 PYE
same,mean (SD) weight increase from baseline,[10]; week 26,1.8 kg
same,Nº of hypos (nocturnal),[6]; CGMS,0 (0-2)
same,Nº of hypos (total),[6]; CGMS,1 (0-3)
same,Nº of hypos (nocturnal),[6]; SMBG,0
same,Nº of hypos (total),[6]; SMBG,0 (0-3)
same,Nausea,[11]; [12],2.6%
same,diarrhea,[11]; [12],3.1%
same,vomiting,[11]; [12],3.1%
same,hypoglycemia rate (≤ 70 mg/dL),[11]; arms DU 1.5 mg once weekly and titrated daily insulin glargine,17.1 events/participant/year
same,mean (SD) increase in body weight from baseline to 1 year,[4],1.3 [3.3] kg
same,"total number of confirmed (≤ 70 mg/dL) or severe hypoglycemic events, any time [24 h]",[4],5101
same,"total number of confirmed (≤ 70 mg/dL) or severe hypoglycemic events, nocturnal [00:00–05:59 h]",[4],839
same,documented hypoglycemia event rate,T2DM patients,5.2 events/year
same,"documented (≤ 70 mg/dL) symptomatic hypoglycemia, patients",T2DM patients,63.3%
